This series in a line: Farnesol loading of micelles (turbidity, HPLC).

One substance from patent US20210330599A1, “Nanoparticles for Controlled Release of Anti-Biofilm Agents and Methods of Use” (University of Rochester, priority 2016, published 2021) can be followed below.

As for “poly(dimethylaminoethyl methacrylate)-b-poly(dimethylaminoethyl methacrylate-co-propylacrylic acid-co-butyl methacrylate) [NPC]”, the “farnesol concentration within nanoparticles relative to its solubility limit” value was approximately 440 times.
